According to the supplement of paper PMC11403291:

What was measured:
Experiment in all cases: apparent dissociation constant pKd app (kinobead competition) (-log10(M)); higher = stronger binding
STK10 = STK10 (UniProt O94804)
PRKD2 = target: T1, PRKD2 (UniProt Q9BZL6)
T1 sequence (whole entry): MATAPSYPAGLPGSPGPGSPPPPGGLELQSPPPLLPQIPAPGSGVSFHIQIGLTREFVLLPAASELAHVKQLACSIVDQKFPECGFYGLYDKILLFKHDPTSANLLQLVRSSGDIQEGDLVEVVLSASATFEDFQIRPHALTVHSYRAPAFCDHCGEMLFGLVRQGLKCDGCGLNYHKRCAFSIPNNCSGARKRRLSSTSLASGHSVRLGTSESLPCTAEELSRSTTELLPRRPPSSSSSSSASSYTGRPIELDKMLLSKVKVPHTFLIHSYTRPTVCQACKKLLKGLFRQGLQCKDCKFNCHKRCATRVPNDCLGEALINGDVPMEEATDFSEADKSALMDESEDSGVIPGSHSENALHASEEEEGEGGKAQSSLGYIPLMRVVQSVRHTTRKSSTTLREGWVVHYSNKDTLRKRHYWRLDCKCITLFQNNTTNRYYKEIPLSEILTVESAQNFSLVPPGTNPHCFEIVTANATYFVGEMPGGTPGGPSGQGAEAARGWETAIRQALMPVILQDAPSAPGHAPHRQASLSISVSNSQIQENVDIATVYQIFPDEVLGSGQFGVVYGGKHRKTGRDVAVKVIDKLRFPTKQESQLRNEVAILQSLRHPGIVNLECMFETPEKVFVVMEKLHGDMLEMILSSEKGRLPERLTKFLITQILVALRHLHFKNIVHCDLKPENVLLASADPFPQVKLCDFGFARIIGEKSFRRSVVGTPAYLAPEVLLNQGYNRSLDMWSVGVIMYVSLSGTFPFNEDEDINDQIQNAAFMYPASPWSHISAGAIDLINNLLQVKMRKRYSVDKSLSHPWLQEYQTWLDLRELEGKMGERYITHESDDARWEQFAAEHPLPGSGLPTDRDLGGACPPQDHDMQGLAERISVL

MARK1 = MARK1 (UniProt Q9P0L2)
MKNK2 = MKNK2 (UniProt Q9HBH9)
CDC2L5 = CDC2L5 (UniProt Q14004)
RPS6KA3 = RPS6KA3 (UniProt P51812)
PIM1 = PIM1 (UniProt P11309)
PCTK2 = PCTK2 (UniProt Q00537)
MAP3K5 = target: T2, MAP3K5 (UniProt Q99683)
T2 sequence (whole entry): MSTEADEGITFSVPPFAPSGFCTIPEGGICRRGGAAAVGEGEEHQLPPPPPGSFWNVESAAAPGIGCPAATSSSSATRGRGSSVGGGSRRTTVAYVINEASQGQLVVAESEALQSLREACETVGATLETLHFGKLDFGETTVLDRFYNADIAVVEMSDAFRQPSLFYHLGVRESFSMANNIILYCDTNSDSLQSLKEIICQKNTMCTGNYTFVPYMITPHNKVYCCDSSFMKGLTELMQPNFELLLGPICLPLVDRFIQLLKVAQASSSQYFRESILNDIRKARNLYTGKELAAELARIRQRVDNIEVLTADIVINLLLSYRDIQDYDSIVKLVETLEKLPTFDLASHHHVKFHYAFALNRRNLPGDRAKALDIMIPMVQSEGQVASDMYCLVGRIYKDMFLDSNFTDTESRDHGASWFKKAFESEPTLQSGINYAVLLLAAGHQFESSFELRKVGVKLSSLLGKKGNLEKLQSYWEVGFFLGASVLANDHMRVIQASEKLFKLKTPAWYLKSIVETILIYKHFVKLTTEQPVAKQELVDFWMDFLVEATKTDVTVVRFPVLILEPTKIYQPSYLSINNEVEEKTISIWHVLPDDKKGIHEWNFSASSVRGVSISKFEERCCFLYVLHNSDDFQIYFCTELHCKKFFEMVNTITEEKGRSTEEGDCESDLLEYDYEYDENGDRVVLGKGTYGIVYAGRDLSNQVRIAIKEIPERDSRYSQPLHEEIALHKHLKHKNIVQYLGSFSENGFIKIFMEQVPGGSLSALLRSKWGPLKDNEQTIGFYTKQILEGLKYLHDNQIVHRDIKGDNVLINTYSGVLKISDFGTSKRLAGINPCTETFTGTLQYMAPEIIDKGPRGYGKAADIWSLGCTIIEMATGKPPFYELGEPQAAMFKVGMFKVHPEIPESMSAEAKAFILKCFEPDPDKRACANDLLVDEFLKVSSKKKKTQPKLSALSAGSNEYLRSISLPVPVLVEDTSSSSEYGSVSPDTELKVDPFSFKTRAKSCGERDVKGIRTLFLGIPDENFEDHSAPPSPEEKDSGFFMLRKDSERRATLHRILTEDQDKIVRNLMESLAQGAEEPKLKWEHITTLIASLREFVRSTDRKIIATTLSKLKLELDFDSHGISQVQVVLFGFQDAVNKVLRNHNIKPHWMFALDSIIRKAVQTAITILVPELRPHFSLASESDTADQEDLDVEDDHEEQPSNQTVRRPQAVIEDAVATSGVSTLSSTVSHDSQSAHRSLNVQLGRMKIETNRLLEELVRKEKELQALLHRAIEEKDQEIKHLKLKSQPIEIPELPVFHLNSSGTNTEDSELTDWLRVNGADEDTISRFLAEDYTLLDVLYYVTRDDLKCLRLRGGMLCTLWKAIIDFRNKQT

**Q.** Which “apparent dissociation constant pKd app (-log10)” value (STK10) does the source give for NC(=O)c1cccc2cn(-c3ccc([C@@H]4CCCNC4)cc3)nc12 [Niraparib] here?
**A.** < 4.6

**Q.** And the “apparent dissociation constant pKd app (-log10)” value (PRKD2)?
**A.** < 4.6

**Q.** And the “apparent dissociation constant pKd app (-log10)” value (MARK1)?
**A.** < 4.6

**Q.** And the “apparent dissociation constant pKd app (-log10)” value (MKNK2)?
**A.** < 4.6

**Q.** And the “apparent dissociation constant pKd app (-log10)” value (CDC2L5)?
**A.** < 4.5

**Q.** What about the “apparent dissociation constant pKd app (-log10)” value (RPS6KA3) of the same compound?
**A.** < 4.5

**Q.** And the “apparent dissociation constant pKd app (-log10)” value (PIM1)?
**A.** < 4.7

**Q.** What about the “apparent dissociation constant pKd app (-log10)” value (PCTK2) of the same compound?
**A.** < 4.6

**Q.** And the “apparent dissociation constant pKd app (-log10)” value (MAP3K5)?
**A.** < 4.6

**Q.** For Cn1ncnc1[C@H]1c2n[nH]c(=O)c3cc(F)cc(c23)N[C@@H]1c1ccc(F)cc1 [Talazoparib], which “apparent dissociation constant pKd app (-log10)” value (STK10) is on record?
**A.** < 4.6

**Q.** And the “apparent dissociation constant pKd app (-log10)” value (PRKD2)?
**A.** < 4.6

**Q.** What about the “apparent dissociation constant pKd app (-log10)” value (MARK1) of the same compound?
**A.** < 4.6

**Q.** What about the “apparent dissociation constant pKd app (-log10)” value (MKNK2) of the same compound?
**A.** < 4.6

**Q.** What about the “apparent dissociation constant pKd app (-log10)” value (CDC2L5) of the same compound?
**A.** < 4.5

**Q.** What about the “apparent dissociation constant pKd app (-log10)” value (RPS6KA3) of the same compound?
**A.** < 4.5

**Q.** What about the “apparent dissociation constant pKd app (-log10)” value (PIM1) of the same compound?
**A.** < 4.7

**Q.** What about the “apparent dissociation constant pKd app (-log10)” value (PCTK2) of the same compound?
**A.** < 4.6

**Q.** What about the “apparent dissociation constant pKd app (-log10)” value (MAP3K5) of the same compound?
**A.** < 4.6

**Q.** With O=C(c1cc(Cc2n[nH]c(=O)c3ccccc23)ccc1F)N1CCN(C(=O)C2CC2)CC1 [Olaparib] as the compound, how does the “apparent dissociation constant pKd app (-log10)” value (STK10) read?
**A.** < 4.6

**Q.** And the “apparent dissociation constant pKd app (-log10)” value (PRKD2)?
**A.** < 4.6

**Q.** And the “apparent dissociation constant pKd app (-log10)” value (MARK1)?
**A.** < 4.6

**Q.** What about the “apparent dissociation constant pKd app (-log10)” value (MKNK2) of the same compound?
**A.** < 4.6

**Q.** What about the “apparent dissociation constant pKd app (-log10)” value (CDC2L5) of the same compound?
**A.** < 4.5

**Q.** What about the “apparent dissociation constant pKd app (-log10)” value (RPS6KA3) of the same compound?
**A.** < 4.5

**Q.** And the “apparent dissociation constant pKd app (-log10)” value (PIM1)?
**A.** < 4.7

**Q.** And the “apparent dissociation constant pKd app (-log10)” value (PCTK2)?
**A.** < 4.6

**Q.** What about the “apparent dissociation constant pKd app (-log10)” value (MAP3K5) of the same compound?
**A.** < 4.6
